The source of these data is patent EP4821930A1, “SUBSTITUTED POLYCYCLIC COMPOUND” (dated 2026).

By UniProt entry, the sequences of proteins in these tests, tags left out. Chains listed by the source or under a name are the forms on record and can include a tag or linker.
UniProt O00255, with tags, fused parts or gaps: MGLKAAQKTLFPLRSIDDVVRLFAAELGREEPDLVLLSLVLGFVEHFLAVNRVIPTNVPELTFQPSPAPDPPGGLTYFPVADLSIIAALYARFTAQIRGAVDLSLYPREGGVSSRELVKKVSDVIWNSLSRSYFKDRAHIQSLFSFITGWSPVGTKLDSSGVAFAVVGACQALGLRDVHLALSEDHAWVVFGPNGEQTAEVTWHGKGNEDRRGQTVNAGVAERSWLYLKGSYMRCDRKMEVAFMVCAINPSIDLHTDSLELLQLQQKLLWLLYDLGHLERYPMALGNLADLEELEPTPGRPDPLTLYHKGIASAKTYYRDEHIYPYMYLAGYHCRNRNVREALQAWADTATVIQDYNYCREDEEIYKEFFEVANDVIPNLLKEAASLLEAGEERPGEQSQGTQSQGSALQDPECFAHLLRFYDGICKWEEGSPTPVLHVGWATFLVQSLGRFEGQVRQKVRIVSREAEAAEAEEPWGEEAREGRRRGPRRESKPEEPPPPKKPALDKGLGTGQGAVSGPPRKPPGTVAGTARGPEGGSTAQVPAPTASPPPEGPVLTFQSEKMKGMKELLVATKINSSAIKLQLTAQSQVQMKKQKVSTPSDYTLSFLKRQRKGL
UniProt O00255, with tags, fused parts or gaps M327I: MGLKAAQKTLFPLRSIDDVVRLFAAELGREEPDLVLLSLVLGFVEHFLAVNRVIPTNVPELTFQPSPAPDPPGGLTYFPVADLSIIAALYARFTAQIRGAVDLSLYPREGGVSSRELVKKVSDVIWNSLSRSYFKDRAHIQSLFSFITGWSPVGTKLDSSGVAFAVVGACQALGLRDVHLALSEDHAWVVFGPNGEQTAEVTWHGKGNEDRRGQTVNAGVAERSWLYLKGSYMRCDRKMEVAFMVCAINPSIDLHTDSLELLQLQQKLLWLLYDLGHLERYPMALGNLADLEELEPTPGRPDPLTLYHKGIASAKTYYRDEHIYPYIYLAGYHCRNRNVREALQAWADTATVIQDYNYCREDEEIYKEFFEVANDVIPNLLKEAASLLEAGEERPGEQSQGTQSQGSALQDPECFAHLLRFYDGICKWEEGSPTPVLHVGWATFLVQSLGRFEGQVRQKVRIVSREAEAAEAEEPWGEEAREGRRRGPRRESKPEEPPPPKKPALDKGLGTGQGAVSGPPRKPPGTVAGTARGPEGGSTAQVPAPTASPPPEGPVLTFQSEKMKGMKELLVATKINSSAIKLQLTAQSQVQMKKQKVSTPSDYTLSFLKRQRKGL

In series [1] the target is Wild-type Menin-MLL (Homo sapiens, UniProt O00255). As to the kind of experiment: Fluorescence polarization binding assay (FP assay), inhibition of wild-type Menin-MLL binding. The note with it: read-out: IC50 (nM) Menin^wt, 5 nM Menin, 2 nM FITC-MLL (4-43), 23 °C, 1 hour. An excerpt:
Wild-type Menin binds with high affinity to the conserved N-terminal sequence of MLL. Compounds bind to Menin by competing with the MLL N-terminus. FITC-MLL (4-43) (synthesized by GenScript) contains the conserved sequence responsible for MLL binding to Menin. We established a method to detect the binding activity between Menin and MLL using a fluorescence polarization binding assay (FP assay), which was then used to evaluate the inhibitory activity of compounds. The specific procedure is as follows: Compounds were serially diluted 5-fold in 100% DMSO starting from 1 mM (8 concentrations in total). For each concentration, 2 µL was added to 48 µL of reaction buffer (50 mM NaCl, 50 mM Tris (pH 7.5), 0.05% Tween-20, 1 mM DTT) and mixed thoroughly to obtain 4× compound solutions (reaching final assay concentrations of 10000, 2000, 400, 80, 16, 3.2, 0.64, 0 nM) for later use. Use reaction buffer to prepare 2× Menin to a final assay concentration of 5 nM, and 4× FITC-MLL (4-43) to a final assay concentration of 2 nM. Add 5 µL of the 4× compound solution to a 384-well plate (OptiPlate-384, purchased from PerkinElmer). Then add 10 µL of the 2× Menin solution and centrifuge. After that, add 5 µL of FITC-MLL (4-43) and centrifuge again to initiate the reaction. Incubate at 23 °C for 1 hour protected from light. After the reaction, the signal was read on an EnVision 2104 Multilabel Reader (purchased from PerkinElmer) at an excitation wavelength of 480 nm and an emission wavelength of 535 nm. The data were analyzed using GraphPad Prism (data analysis software) to obtain the IC50 values of the compounds.
Background: Polarisation of emitted light reports the rotation of a fluorescent probe.

Series [2] deals with Menin^M327I (Homo sapiens, UniProt O00255, M322I). Put plainly: Fluorescence polarization binding assay (FP assay), inhibition of mutant Menin-MLL binding. Particulars: read-out: IC50 (nM) Menin^M327I, 5 nM Menin^mut, 2 nM FITC-MLL (4-43), 23 °C, 1 hour. An excerpt: The Menin^mut DNA sequence was cloned into the pET28a vector via restriction enzyme digestion and ligation. The recombinant protein was expressed using the BL21 E. coli system and purified by Ni-NTA to obtain Menin^mut. Menin binds with high affinity to the conserved N-terminal sequence of MLL, and compounds bind to Menin by competing with the MLL N-terminus. FITC-MLL (4-43) (synthesized by GenScript) contains the conserved sequence responsible for MLL binding to Menin. We employed a fluorescence polarization binding assay (FP assay) based on the principle that the binding of FITC-MLL (4-43) to Menin^mut increases the molecular weight and enhances fluorescence, to evaluate the inhibitory effect of compounds on the binding between Menin^mut and MLL. The detailed procedure is as follows: Compounds were dissolved in DMSO to a final concentration of 10 mM. The 10 mM compound solution was then diluted 10-fold with DMSO, followed by 5-fold serial dilutions to obtain a total of 8 concentrations. For each concentration, 2 µL was added to 48 µL of reaction buffer (50 mM NaCl, 50 mM Tris, pH 7.5, 0.05% Tween-20, 1 mM DTT) and mixed thoroughly to obtain 4× compound solutions (reaching final assay concentrations of 10000, 2000, 400, 80, 16, 3.2, 0.64, 0 nM) for later use. Use reaction buffer to prepare 2× Menin^mut to a final assay concentration of 5 nM, and 4× FITC-MLL (4-43) to a final assay concentration of 2 nM. Add 5 µL of the 4× compound solution to a 384-well plate (OptiPlate-384, purchased from PerkinElmer). Then add 10 µL of the 2× Meninmut solution and centrifuge. After that, add 5 µL of FITC-MLL (4-43) and briefly centrifuge to initiate the reaction. Incubate at 23 °C for 1 hour protected from light. After the reaction, the signal was read on an EnVision 2104 Multilabel Reader (purchased from PerkinElmer) at an excitation wavelength of 480 nm and an emission wavelength of 535 nm. For each compound, the inhibitory effect was determined at 8 concentrations. The data were processed using GraphPad Prism software to calculate the half-maximal inhibitory concentration (IC50) of the compound for Menin-MLL binding.

Series [3] concerns MV-4-11 cells expressing wild-type Menin protein. Put plainly: MV-4-11 cell proliferation inhibition (CellTiter-Blue). Particulars: read-out: IC50 (nM) MV-4-11, 72 hours incubation. Here is the method:
MV-4-11 cells are human acute myeloid leukemia cells that contain the MLL-AF4 fusion protein. In this experiment, after incubating different concentrations of the compounds with MV-4-11 cells, the CellTiter-Blue® detection reagent from Promega was used to establish a screening method for the inhibition of MV-4-11 cell proliferation.
MV-4-11 cells were cultured in RPMI-1640 medium (Biological Industries, Cat. No. 01-100-1ACS) supplemented with 10% fetal bovine serum (Biological Industries, Cat. No. 04-001-1ACS), under conditions of 37°C and 5% CO2. The cells were subcultured 2 - 3 times per week. Cells were seeded into 96-well cell culture plates (Corning®) at 5,000 cells per well in 195 µL/well and incubated at 37°C with 5% CO2. After 24 hours, compounds were serially diluted 3-fold in 100% DMSO starting from 10 mM (10 concentrations in total). Then, 4 µL of each compound concentration was added to 96 µL of RPMI-1640 medium and mixed well. Subsequently, 5 µL of the diluted compound from each concentration was added to the prepared cell suspension, and the compounds were co-incubated with the cells in a cell culture incubator for 72 hours (3 days). Then, 35 µL of CellTiter-Blue reagent (Promega, Cat. No. G8082) was added, and the reaction was incubated at 37°C with 5% CO2 for 4 hours. Fluorescence values were read on a BMG Clariostar Microplate Reader, and the data were processed using GraphPad Prism software to calculate the IC50 value of the compound for cell proliferation inhibition.

In series [4] the test system is Menin^M327I/MOLM13 cells. Put plainly: Menin^M327I/MOLM13 cell proliferation inhibition (CellTiter-Glo). The note with it: read-out: IC50 (nM) Menin^M327I/MOLM13, 7 days incubation. Here is the method: The Menin^M327I DNA sequence was inserted into the lentiviral vector pCDHL-CMV-3xFlag-puroR via restriction enzyme digestion and ligation. The construct was co-transfected with psPAX2/pMD2G into 293T cells. After 48 hours, the virus was harvested and used to infect MOLM13 cells. Pool and monoclonal selections were performed using puromycin to ultimately obtain a stable cell line stably expressing the Menin^M327I recombinant protein.
MOLM13 cells are human acute myeloid leukemia cells that contain the MLL-AF9 fusion protein. In this experiment, different concentrations of compounds will be incubated with Menin^M327I/MOLM13 cells for 7 days, and viable cells will be detected using Promega's CellTiter-Glo assay.
MOLM13 cells were cultured in RPMI-1640 medium supplemented with 20% fetal bovine serum. One day prior to compound addition, cells were seeded into 96-well cell culture plates at 500 cells per well in a volume of 195 µL per well. Compounds were dissolved in DMSO to a final concentration of 10 mM. The 10 mM compound stock was then serially diluted 3-fold in DMSO to obtain 10 concentrations. For each concentration, 2 µL was taken and added to 48 µL of RPMI-1640 medium for a 25-fold dilution, and then added as a 40× compound to the prepared cell suspension. After co-incubation in the incubator for 7 days, 35 µL of Cell-Titer Glo was added, and the mixture was allowed to stand at room temperature for 10 minutes. Fluorescence signals were read on a CLARIO starPlus instrument, and finally the IC50 value for cell proliferation inhibition was calculated using GraphPad Prism 5.0.
A general note: ATP-based viability assays read luminescence as a measure of living cells.

The nature of series [5]: Pharmacokinetic study in SD rats. The note with it: male SD rats, oral, 10 mg/kg, 0.5% MC + 0.1% SDS. The method, then:
Male SD rats were obtained from Beijing Vital River Laboratory Animal Technology Co., Ltd. The rats were divided into groups of three animals each, and the test sample suspension (10 mg/kg, formulated in 0.5% MC + 0.1% SDS) was administered orally by gavage. The animals were fasted overnight prior to the experiment, with food withheld from 10 hours before dosing until 4 hours after dosing. Blood samples were collected at 0.25, 0.5, 1, 2, 4, 6, 8, and 24 hours after dosing. Following anesthesia with isoflurane using a small animal anesthesia machine, 0.3 mL of whole blood was collected from the retro-orbital venous plexus into heparin anticoagulant tubes. The samples were centrifuged at 4000 rpm for 5 minutes at 4°C, and the plasma was transferred to centrifuge tubes and stored at -80 °C until analysis. Plasma samples were extracted using the protein precipitation method, and the extracts were analyzed by LC/MS. Table 3. Pharmacokinetic parameters of the example compounds.

As usually defined, the Cmax is the maximum level reached in the sampled fluid or tissue. By Tmax is commonly meant the time from dosing to the highest level. In the case of `CCN(C(=O)c1cc(F)ccc1-n1c2c(c3c(Cl)cncc31)CC1(CC2)CN([C@H](CCCN(C)CCOC)C(C)C)C1)C(C)C`, in series [1], the IC50 came out at 1.9 nM. In addition, the IC50 in series [2] was determined as 2.5 nM. Besides, in series [3], the IC50 is 2.1 nM. The IC50 in series [4] was found to be 11.5 nM. In series [5], the AUC0-inf worked out at 593 ng·h/mL, the Cmax is 43.3 ng/mL, the T1/2 turned out to be 11.7 h and the time of peak concentration (Tmax) was 6.00 h.
`CCN(C(=O)c1cc(F)ccc1-n1c2c(c3c(C)cncc31)CC1(C2)CN([C@@H](CCCN(C)CCOC)C(C)C)C1)C(C)C`: the values for the IC50 in series [1] and in series [2] were 8.1 nM and 4.5 nM, respectively.
Turning to `CCN(C(=O)c1cc(F)ccc1-n1c2c(c3c(C)cncc31)CC1(C2)CN([C@H](CCCN(C)CCOC)C(C)C)C1)C(C)C`, the IC50 is 4 nM in series [1], 2.9 nM in series [2], 7.4 nM in series [3] and 18.2 nM in series [4].
Regarding `CCN(C(=O)c1cc(F)ccc1-n1c2c(c3c(C)cncc31)CC1(CC2)CCN(C(CCCN(C)CCOC)C(C)C)C1)C(C)C` (centres unmarked), the IC50 in series [1] was found to be 11.2 nM; in series [2], 3.3 nM; in series [3] it was 1.9 nM; in series [4] it was 6.5 nM.
For the molecule `CCN(C(=O)c1cc(F)ccc1-n1c2c(c3c(C)cncc31)CC1(C2)CN(C(CCCN(C)CCOC)C(C)C)C1)C(C)C` (racemic), the IC50 in series [1] was 11.1 nM; in series [2] it was 9 nM; in series [3], 4.8 nM; in series [4] it was 24.2 nM. In addition, the AUC0-inf in series [5] amounted to 633 ng·h/mL. For the same molecule, the Cmax in series [5] is on record as 66.7 ng/mL. Besides, the T1/2 in series [5] was 21.2 h. The time of peak concentration (Tmax) in series [5] came out at 1.67 h.
On to `COCCN(C)CCCC(C(C)C)N1CCC2(CCc3c(c4c(C)cncc4n3-c3ccc(F)cc3C(=O)N(C(C)C)C(C)C)C2)C1` (centres unmarked), for which the IC50 was found to be 10.9 nM in series [1], 3.7 nM in series [2], 3.5 nM in series [3] and 10 nM in series [4].
Turning to `CCN(C(=O)c1cc(F)ccc1-n1c2c(c3c(C)cncc31)OC1(C2)CN(C(CCCN(C)CCOC)C(C)C)C1)C(C)C` (centres unmarked), in series [5], the AUC0-inf amounted to 1491 ng·h/mL, the peak concentration (Cmax) is on record as 101 ng/mL, the T1/2 worked out at 9.09 h and the Tmax turned out to be 5.33 h.
In the case of `CCN(C(=O)c1cc(F)ccc1-n1c2c(c3c(C)cncc31)CC1(CCN(C(CCCN(C)CCOC)C(C)C)CC1)C2)C(C)C` (centres unmarked), the IC50 was 5.6 nM in series [1], 4.6 nM in series [2], 1.8 nM in series [3] and 8.2 nM in series [4].
The matching figures for `CCN(C(=O)c1cc(F)ccc1-n1c2c(c3c(C)cncc31)CC1(CC2)CCN(C(CCCN(C)CCOC)C(C)C)CC1)C(C)C` (centres unmarked): 8.1 nM, 6.8 nM, 3.8 nM and 12.4 nM.
The matching figures for `COCCN(C)CCCC(C(C)C)N1CC2(CCc3c(c4c(C)cncc4n3-c3ccc(F)cc3C(=O)N(C(C)C)C(C)C)C2)C1` (centres unmarked): 8.5 nM, 2.8 nM, 5.2 nM and 16.3 nM.
The matching figures for `CCN(C(=O)c1cc(F)ccc1-n1cc(C2CCN(C(CCCN(C)CCOC)C(C)C)CC2)c2ccncc21)C(C)C` (centres unmarked): 10.4 nM, 6 nM, 1.8 nM and 7.2 nM.
`COCCN(C)CCCC(C(C)C)N1CC2(Cc3c(n(-c4ccc(F)cc4C(=O)N(C(C)C)C(C)C)c4cncc(C)c34)C2)C1` (centres unmarked): the IC50 in series [1] turned out to be 28 nM; in series [2] it was 11.4 nM.
Take `CCN(C(=O)c1cc(F)ccc1-n1c2c(c3c(Cl)cncc31)CC1(CC2)CN([C@@H](CCCN(C)CCOC)C(C)C)C1)C(C)C`: the values for the IC50 in series [1] and in series [2] were 10.7 nM and 19.9 nM, respectively.
`CCN(C(=O)c1cc(F)ccc1-n1c2c(c3c(F)cncc31)CC1(CC2)CN(C(CCCN(C)CCOC)C(C)C)C1)C(C)C` (centres unmarked): the IC50 turned out to be 10 nM in series [1], 7.4 nM in series [2], 8.2 nM in series [3] and 29.2 nM in series [4].
The matching figures for `CCN(C(=O)c1cc(F)ccc1-n1c2c(c3c(Cl)cncc31)CC1(C2)CN(C(CCCN(C)CCOC)C(C)C)C1)C(C)C` (centres unmarked): 8.1 nM, 6.1 nM, 5.8 nM and 24.2 nM.
